Values of other authors, collected in patent US8487131B2 (Sanford-Burnham Medical Research Institute, priority 2009, dated 2013).

Tested on: MDA-MB-231 breast cancer cells
Conditions: read-out: EC50 in killing MDA-MB-231 breast cancer cells; reference 13; cited from earlier work

For `Cc1cc2c(C(C)C)c(O)c(O)c(C=O)c2c(O)c1-c1c(C)cc2c(C(C)C)c(O)c(O)c(C=O)c2c1O` (single isomer, unassigned), the EC50 is given as 2000 nM.
